The assay addresses Norepinephrine transporter (Rattus norvegicus, UniProt Q9JIA2).

Compound `CNCC[C@H](Oc1cccc2ccccc12)c1cccs1` [DULOXETINE] had a Ki of 3.6 nM.

What is called Ki is a dissociation constant, usually derived from enzyme kinetics or from competition with a known ligand. A low value points to tighter binding.
